# Ab-91 heavy chain CDR variants: yeast mating affinities

Target: peptide PDVDLGDISGINAS, taken from heptad repeat 2 (HR2) of SARS-CoV-2 spike.

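The starting antibody came from a phage panning campaign against this peptide. The library (AAYL51) carries one to three amino acid substitutions per variant, with no insertions or deletions. AlphaSeq pools MATa yeast showing the antibodies with MATalpha yeast showing the peptide. Pairs that bind mate more often; barcode pairs of the diploids are counted by sequencing. A regression on co-assayed BCL2-family reference pairs converts the normalised counts of each replicate to an apparent Kd. Mating was done three times.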

Parent scFv Ab-91: VL joined to VH by a (GGGGS)3 linker. Changes lie in the heavy chain CDRs alone.
VL: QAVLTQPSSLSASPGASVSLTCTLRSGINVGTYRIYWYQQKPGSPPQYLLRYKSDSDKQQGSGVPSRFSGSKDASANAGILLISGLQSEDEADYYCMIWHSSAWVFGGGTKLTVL
VH: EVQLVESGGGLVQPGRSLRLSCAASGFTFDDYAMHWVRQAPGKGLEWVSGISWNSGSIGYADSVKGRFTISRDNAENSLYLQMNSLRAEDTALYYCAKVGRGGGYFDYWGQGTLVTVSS

Substitutions are numbered in sequence along the VH above, starting at 1 (not Kabat). Values are apparent Kd, the geometric mean of the replicates that gave a signal; lower means stronger binding. Where no diploid with the target was found in any replicate, the entry reads "nd": below detection, most likely a poor binder, though not proof of it. Parent in this assay: reference entry 72 nM, copy in this library 7.5 nM. Nonspecific signal, from three strains lacking the peptide, appeared in 21% of pairings of library AAYL51, centred on 34 µM (5% of these signals below 1.8 µM); values are not corrected for it.

changes,apparent Kd,detected
F27N F29C G56D,64 µM,1 of 3
D31P W53C S63H,17 µM,1 of 3
F27N I58C K65C,nd,0 of 3
Y32L H35N Y60N,5.5 µM,1 of 3
W53S K65I D107L,840 nM,1 of 3
G26F A33I H35M,110 µM,2 of 3
I51T V64T G103P,41 µM,3 of 3
H35L I58N Y105Q,nd,0 of 3
H35G Y60G D62W,nd,0 of 3
S57L Y60P G100R,8.5 µM,1 of 3
F27N H35R N54C,4.4 µM,1 of 3
D30E A33I,23 nM,3 of 3
F29D Y32P G50I,27 µM,2 of 3
D31E G56I I58K,34 nM,3 of 3
S57V K65V Y108F,6.9 µM,2 of 3
T28H Y32D Y108R,29 µM,2 of 3
S52V Y60H D107L,450 µM,2 of 3
G50A G56T G59E,nd,0 of 3
I51V N54K Y108A,12 µM,1 of 3
Y32N K65Q G102F,7.3 µM,3 of 3
D31N H35E Y105C,nd,0 of 3
G50K K65E V99H,nd,0 of 3
I51G S57I F106G,2.1 µM,1 of 3
G26Y W53T D107H,1.4 µM,3 of 3
F29P D107A Y108F,nd,0 of 3
D30S S57L D107N,260 µM,1 of 3
G50A G56I D62M,nd,0 of 3
A33H N54A G56L,15 µM,1 of 3
F29N S57N K65Q,11 µM,1 of 3
G50K N54Y S63G,nd,0 of 3
G50H S55T G56L,260 µM,1 of 3
Y32E W53R K65H,41 µM,3 of 3
G56I I58S G100H,nd,0 of 3
D30I H35E G50W,nd,0 of 3
M34W Y60P D62W,nd,0 of 3
H35L S52G R101Y,nd,0 of 3
Y32I I51K,nd,0 of 3
S52T F106V,nd,0 of 3

Second part, the sequence after the result:

apparent Kd,detected,changes
120 µM,1 of 3,I51Q S52A W53R
nd,0 of 3,I58G G103N Y108I
1.7 µM,3 of 3,F27C Y32C A33G
20 µM,1 of 3,D30C Y32W G50W
nd,0 of 3,W53Y Y105R
800 nM,1 of 3,Y32F W53V D62I
nd,0 of 3,D31M M34E Y105R
nd,0 of 3,F27K G102Q F106V
nd,0 of 3,T28A Y105P D107P
150 µM,1 of 3,D31M G50C G104Q
16 µM,2 of 3,D31Y N54F Y108A
620 µM,1 of 3,H35Q N54I A61V
39 µM,2 of 3,F29H I51A G56P
nd,0 of 3,A61P R101H Y108D
15 nM,3 of 3,G56W R101C Y108N
9.9 nM,1 of 3,F29M D62P R101Q
50 µM,3 of 3,W53L S63I V64T
600 nM,3 of 3,F29K W53C A61K
nd,0 of 3,D30F Y60G V64T
52 µM,2 of 3,G26T F27Q G102C
79 µM,1 of 3,G50F S63Y
850 µM,3 of 3,Y32W G56Q V64E
6.7 nM,3 of 3,G56M I58S R101N
50 µM,2 of 3,T28W M34V
nd,0 of 3,F27W N54I V99Y
13 µM,1 of 3,D30E A61H V64P
nd,0 of 3,T28Y F29W V99N
19 µM,1 of 3,N54F V64L G103N
610 µM,1 of 3,A33N W53F V99H
3.8 µM,1 of 3,G26F A33Y G59W
nd,0 of 3,A33Y I51Y A61P
14 nM,3 of 3,D31R A33G G59I
17 µM,2 of 3,W53C S57Q G102C
6.2 µM,2 of 3,D30W G50F V64N
32 µM,3 of 3,G56N G103K
86 µM,2 of 3,S57A G104N
5.1 nM,3 of 3,S52N S57A V99E
nd,0 of 3,D31Y S55W V64M
6.7 µM,1 of 3,G56W Y60K A61S

5 of these entries, quoted again:

changes,apparent Kd,detected
G50A G56I D62M,nd,0 of 3
M34W Y60P D62W,nd,0 of 3
Y32I I51K,nd,0 of 3
W53S K65I D107L,840 nM,1 of 3
S52V Y60H D107L,450 µM,2 of 3

Reference: Engelhart et al. 2022, doi:10.1038/s41597-022-01779-4. File: FLAb, binding data.